Compound activity as filed in PubChem BioAssay.
TDP1 block = TDP1 (human) enzyme inhibition. recombinant TDP1, AlphaScreen DNA substrate cleavage. AID 485290. 0.28% of 350,000 active. Potency, µM (highest dose often 130 µM), most hits filed as inhibitors; note: nearly all actives have a fitted effect of over 40% in size
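Compounds were preincubated with Tdp1 (1 nM final) for 15 min at room temperature before substrate (15 nM final) started a 5 min reaction; beads (10 ug/ml final) were then added for 10 min before AlphaScreen detection.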
TDP1 cell CPT = DT40-hTDP1 cell growth loss with CPT | AID 686979 | 12% of 420,000 active | chicken DT40 Tdp1-/-;hTDP1 cells + 20 nM CPT, ATP luminescence, 48 h | Potency, µM (highest dose often 46.2 µM), usual class: inhibitors; note: nearly all actives have a fitted effect of over 55% in size
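Cell growth measured by CellTiter-Glo luminescence after a minimum 48 h, 37 C compound exposure with 20 nM CPT in Tdp1-knockout DT40 cells stably expressing hTDP1, seeded 400/well; qHTS titration format.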
uPA surface inh = blocks generation of uPA at the cell surface; 0.31% of 330,000 active; cell surface uPA generation assay, qHTS; Potency, µM (series often up to 38.3 µM), hits mostly inhibitors; active = well fitted inhibition curve with a large enough effect; inconclusive = small, poorly fitted or top-dose-only effect; inactive = no such curve, though single readings can be large or run the other way; tested in mouse RAW 264.7 cells; note: nearly all actives have a fitted effect of over 55% in size
DT40 TDP1 no CPT = qHTS for Inhibitors of human tyrosyl-DNA phosphodiesterase 1 (TDP1): qHTS in cells in absence of CPT | DT40 Tdp1-/- hTDP1 cells, no CPT, ATP luminescence, 48 h | Potency, µM (top dose mostly 46.2 µM), actives largely listed as inhibitors | 15% of 420,000 active | AID 686978, 2013; note: nearly all actives have a fitted effect of over 55% in size
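Chicken DT40 Tdp1-/- cells complemented with human TDP1, screened without camptothecin (DMSO vehicle only), 400 cells/well. Compounds pin-transferred, cells incubated at 37 °C for at least 48 hr. Growth read as ATP-dependent luminescence (CellTiter-Glo, 30 min at RT).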
miR-21 reporter = raises the signal of a miR-21 reporter; Potency, µM (doses to about 38.3 µM); HeLa miR-21 FLuc reporter, luciferase, 48 h; AID 2288; 340,000 tested, under 10 active; active = well fitted rising curve with a large enough effect; inconclusive = small, poorly fitted or top-dose-only effect; inactive = no such curve, though single readings can be large or run the other way;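 further: miR-21 action dims this reporter so a rising signal means less miR-21 action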
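HeLa cells endogenously expressing miR-21, stably carrying CMV-driven firefly luciferase with a downstream miR-21 binding site, 2000 cells/well. Titrations up to approximately 40 uM, 48 hours; luciferase luminescence read.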
A number is an active result; 0 = inactive; ? = inconclusive; - = no result given; [ ] = dose if it differs, or a comment. Compounds with a hit are over-represented: about 16% of the library has one in this group of screens. Unless noted, calls come from the whole dose curve; as a rule, active = well fitted curve in the direction sought with a large enough effect; inconclusive = small, poorly fitted or top-dose-only effect, or another doubt; inactive = no such curve, though single readings can be large; an effect the other way counts as inactive or inconclusive.

SMILES	TDP1 block	TDP1 cell CPT	uPA surface inh	DT40 TDP1 no CPT	miR-21 reporter
COc1cccc(Cn2cnc3c(NS(=O)(=O)c4cccc(Cl)c4Cl)c(C)c(C)cc32)c1	0	21µM	0	23µM	0
O=S1(=O)CC(O)C(N=Nc2c(O)n(Cc3ccccc3)c3ccccc23)C1 (stereo not drawn)	-	16µM	0	12µM	0
Cc1ccc(NC(=O)Cn2c(O)c(N=NC(=O)c3cc4ccccc4cc3O)c3ccccc32)cc1	0	7.3µM	0	7.3µM	0
Cc1ccc(NC(=O)Cn2c(O)c(N=NC(=O)c3ccncc3)c3ccccc32)cc1	0	?	0	0	0
O=C(Cn1c(O)c(N=NC(=O)c2ccncc2)c2ccccc21)Nc1ccccc1	0	0	0	0	0
O=C(N=Nc1c(O)n(Cc2ccccc2)c2ccccc12)c1ccc(O)cc1	0	?	0	23µM	0
Cc1cccc(NC(=O)Cn2c(O)c(N=NC(N)=S)c3ccccc32)c1	-	23µM	0	15µM	0
Cc1ccc(Cn2c(O)c(N=O)c3ccccc32)cc1	0	0	0	0	0
NS(=O)(=O)c1ccc(N/N=C/c2ccncc2)cc1	0[0.0935 µM]	0	0	0	0
Nc1c(-c2ccccc2)cc[nH]c1=O	0	-	-	-	-
O=C(N=Nc1c(O)n(Cc2ccccc2)c2ccccc12)c1cc2ccccc2cc1O	0	?	0	15µM	0
COc1ccccc1NC(=O)Cn1c(O)c(N=NC(=O)c2ccccc2O)c2ccccc21	0	0.92µM	0	1.8µM	0
COc1ccc(C(=O)NCC(=O)N=Nc2c(O)n(Cc3ccccc3)c3ccccc23)cc1OC	0	?	0	16µM	0
COc1ccc(C(=O)NCC(=O)N=Nc2c(O)n(C)c3ccccc23)cc1OC	0	0	0	0	0
Cc1cccc2sc(NC(=O)CN3C(=O)c4ccccc4C3=O)nc12	0	0	0	?	0
CCOC(=O)C1=C(C)Nc2ccccc2N=C1NC(=O)/C=C/c1ccc(OC)cc1OC	0	0	0	0	0
O=C(O)C/C(=C\c1cc(Br)cs1)c1nc2ccccc2o1	0[0.0935 µM]	0	0	0	0
CC1=Nc2ccccc2N=C(NC(=O)c2ccccc2)C1c1ccc(Cl)cc1 (stereo not drawn)	0	?	0	21µM	0
O=C(Cn1nnc2ccccc21)OCC(=O)c1ccc(F)cc1	0	0	0	0	0
CCOC(=O)C(=Cc1ccccc1)C(=O)OCC	0	-	-	-	-
CCOC(=O)C(=Cc1ccc(-n2cncn2)cc1)C(=O)OCC	0	12µM	0	13µM	?
Cc1ccc(NC(=O)CC2S/C(=N/c3nccs3)N(C)C2=O)cc1C (stereo not drawn)	0	0	0	0	0
Cc1ccc(S(=O)(=O)NCCc2cc3ccc(C)cc3[nH]c2=O)cc1	-	0	0	0	0
COc1ccc2cc(CCNS(=O)(=O)c3ccc(C)cc3)c(=O)[nH]c2c1	0[12.3 µM]	0	-	9.2µM	0
Cc1ccc2cc(CCNS(=O)(=O)c3ccc(F)cc3)c(=O)[nH]c2c1	0	21µM	0	18µM	0
SMILES	TDP1 block	TDP1 cell CPT	uPA surface inh	DT40 TDP1 no CPT	miR-21 reporter
Cc1ccc2nc(-c3ccc(N4C(=O)CC(N5CCN(CCO)CC5)C4=O)cc3)sc2c1 (stereo not drawn)	0	?	0	15µM	0
C=CCn1c(SC/C=C/c2ccccc2)nnc1-c1sc(N)nc1C	0	?	0	15µM	0
O=c1c(Cl)c(NCc2ccccc2)cnn1C12CC3CC(CC(C3)C1)C2	0	0	0	?	0
O=c1c(Cl)c(N2CCC3(CC2)OCCO3)cnn1C12CC3CC(CC(C3)C1)C2	-	?	0	13µM	0
COc1ccc(CN2CCN(CC=C(C)C)C(CCO)C2)cc1Cn1cccn1 (stereo not drawn)	0	0	0	0	0
COc1cc(CN2CCC(CO)(Cc3cccc(C(F)(F)F)c3)CC2)ccc1F	0	21µM	0	23µM	0
OCC1(Cc2ccccc2)CCN(Cc2cccc(F)c2F)CC1	0	?	0	?	0
COc1ccc(F)c(CN2CCC(CO)(Cc3cccc(C(F)(F)F)c3)CC2)c1	0	?	0	?	0
COc1ccc(CN2CCC(CO)(Cc3cccc(C(F)(F)F)c3)CC2)cc1Cn1cccn1	0	?	0	18µM	0
OCC1(Cc2ccccc2)CCN(Cc2ccc(C(F)(F)F)cc2)CC1	0	23µM	0	18µM	0
Cc1nc(C(=O)NCC(=O)c2ccc(Cl)cc2)c(C(F)(F)F)o1	0	0	0	?	0
NC(N)=NC(N)=Nc1ccc(SC(F)(F)F)cc1	0	10µM	0	9.2µM	0
COc1cccc(N=C(N)N=C(N)N)c1	0	0	0	0	0
O=C(NNC(=O)C1CC2CCC1C2)c1sc2ccccc2c1Cl (stereo not drawn)	0	?	0	?	0
CCN1CCN(c2cc(C)c3cc(NC(=O)c4cccc(Cl)c4)ccc3n2)CC1	0	15µM	-	6.5µM	0
CCN1CCN(c2cc(C)c3cc(NC(=O)CCC(=O)N4CCN(c5ccccc5)CC4)ccc3n2)CC1	0	?	0	?	0
CCN1CCN(c2cc(C)c3cc(NC(=O)/C=C/c4cccc(Cl)c4)ccc3n2)CC1	0	5.2µM	-	0	0
CCOC(=O)C1=CCN(S(=O)(=O)c2ccc(F)cc2)C1c1ccccc1 (stereo not drawn)	-	?	-	21µM	-
CCOC(=O)C1=CCN(S(=O)(=O)c2ccccc2)C1c1ccc(C)cc1 (stereo not drawn)	-	0	-	0	-
CCOC(=O)C1=CCN(S(=O)(=O)c2ccc(F)cc2)C1c1ccc(F)cc1 (stereo not drawn)	-	?	-	15µM	-
O=C(N/N=C/c1ccccn1)c1ccc2nc[nH]c2c1	0	0	0	0	0
CCCn1c(=O)c2sccc2n2c(CCCC(=O)Nc3ccccc3OCC)nnc12	0	0	-	0	0
CCOc1ccc(-n2cc(-c3ccccc3)c3c(NCc4ccccc4)ncnc32)cc1	0	?	-	?	0
Clc1ccc(CCNc2ncnc3c2c(-c2ccccc2)cn3-c2ccccc2)cc1	0	?	-	?	0
CCOc1ccc(-n2cc(-c3ccccc3)c3c(NCCc4ccccc4)ncnc32)cc1	0	?	-	23µM	0
CCOc1ccc(-n2cc(-c3ccccc3)c3c(NCc4ccc(F)cc4)ncnc32)cc1	0	18µM	-	12µM	0
COc1ccc(CNc2ncnc3c2c(-c2ccccc2)cn3-c2ccccc2)cc1	0	?	-	21µM	0
COc1ccc(NC(=O)CSc2cn[nH]n2)c(OC)c1	0	0	0	0	0
CC(=O)N1CCc2cc(Br)cc(S(=O)(=O)N3CCC(C)CC3)c21	0	0	-	0	0
Cc1cc2oc(=O)cc(-c3ccccc3)c2c(C)c1-c1ccc(C#N)cc1	0	16µM	0	16µM	-
